The source of these data is ChEMBL document CHEMBL4715927, “A New FXR Ligand Chemotype with Agonist/Antagonist Switch” (ACS Med Chem Lett, 2021).

What all share (format): cell-based
Test [1] relates to HepG2. The test is described as follows: Antagonist activity at human FXR/human RXR heterodimer expressing in human HepG2 cells co-expressing pGL3basic-BSEP assessed as reduction in GW4064-induced response element activation incubated for 24 hrs heterodimer assay. The conditions noted are these: filed as antagonist.
In test [2] the test system is HepG2. In words: Antagonist activity at human FXR/human RXR heterodimer expressing in human HepG2 cells co-expressing pGL3basic-BSEP assessed as reduction in CDCA-induced activation incubated for 24 hrs heterodimer assay. The settings on record: filed as antagonist.
Test [3] has as its system HepG2. In words: Agonist activity at human FXR/human RXR heterodimer expressing in human HepG2 cells co-expressing pGL3basic-BSEP assessed as response element activation incubated for 24 hrs heterodimer assay.

Calls of active or inactive are those of the source. The rule behind the calls is not given here.

`CC(C)(C)c1ccc(-c2cc(CCC(=O)O)n[nH]2)cc1`: the outcome in test [1] and in test [2] was Active. Further, in test [3], the result was inactive.
